Measurements taken from ChEMBL document CHEMBL3638402, “Quarternized buprenorphine analogs” (2015).

Tests used:
[1] = target: Kappa-type opioid receptor (Homo sapiens, UniProt P41145); assay: Radioligand Dose-Displacement Binding Assay: Membranes from recombinant HEK-293 cells expressing the human kippa opioid receptor (cloned in house) were prepared by lysing cells in ice cold hypotonic buffer (2.5 mM MgCl2, 50 mM HEPES, pH 7.4) (10 mL/10 cm dish) followed by homogenization with a tissue grinder/Teflon pestle. Membranes were collected by centrifugation at 30,000xg for 15 min at 4 C. a; details: sf9
Mu-type opioid receptor = Mu-type opioid receptor (Homo sapiens, UniProt P35372); assay: Radioligand Dose-Displacement Binding Assay: Radioligand dose-displacement binding assays for -opioid receptors used 0.3 nM [3H]-diprenorphine (Perkin Elmer, Shelton, Conn.), with […] membrane protein/well in a final volume of 500 ul binding buffer (10 mM MgCl2, 1 mM EDTA, 5% DMSO, 50 mM HEPES, pH 7.4). Reactions were carried out in the absence or presence of increasing concentrations of unlabele
[2] = target: Delta-type opioid receptor (Homo sapiens, UniProt P41143); assay: Radioligand Dose-Displacement Binding Assay: δ-opioid Receptor Binding Assay Procedures were conducted as follows. Radioligand dose-displacement assays used 0.3 nM [3H]-Naltrindole (Perkin Elmer, Shelton, Conn.; 33.0 Ci/mmole) with 5 μg membrane protein (Perkin Elmer, Shelton, Conn.) in a final volume of 500 μl binding buffer (5 mM MgCl2, 5% DMSO, 50 mM Trizma base, pH 7.4). Non-specific binding w

SMILES | Ki [1] | Ki (Mu-type opioid receptor) | Ki [2]
COc1ccc2c3c1O[C@H]1[C@@]4(OC)CC[C@@]5(C[C@@H]4COCc4ccc6ccccc6c4)[C@@H](C2)[N+](C)(CC2CC2)CC[C@]315 (stereo partly specified) | 165 nM | 182 nM | –
COc1ccc2c3c1O[C@H]1[C@@]4(OC)CC[C@@]5(C[C@@H]4COCc4ccc(C(N)=O)cc4)[C@@H](C2)[N+](C)(CC2CC2)CC[C@]315 (stereo partly specified) | 1030 nM | – | –
COc1ccc2c3c1O[C@H]1[C@@]4(OC)CC[C@@]5(C[C@@H]4COCc4ccoc4)[C@@H](C2)[N+](C)(CC2CC2)CC[C@]315 (stereo partly specified) | 35 nM | 5810 nM | –
COc1ccc2c3c1O[C@H]1[C@@]4(OC)CC[C@@]5(C[C@@H]4COCc4ccc(C)cc4)[C@@H](C2)[N+](C)(CC2CC2)CC[C@]315 (stereo partly specified) | 117 nM | 242 nM | 10100 nM
COc1ccc2c3c1O[C@H]1[C@@]4(OC)CC[C@@]5(C[C@@H]4COc4ccccc4)[C@@H](C2)[N+](C)(CC2CC2)CC[C@]315 (stereo partly specified) | 348 nM | 1490 nM | –
CO[C@]12CC[C@@]3(C[C@@H]1COCc1ccccc1C)[C@H]1Cc4ccc(O)c5c4[C@@]3(CC[N+]1(C)CC1CC1)[C@H]2O5 (stereo partly specified) | 0.47 nM | – | –
COc1ccc2c3c1O[C@H]1[C@@]4(OC)CC[C@@]5(C[C@@H]4COCc4ccc(C(C)(F)F)cc4)[C@@H](C2)[N+](C)(CC2CC2)CC[C@]315 (stereo partly specified) | 112 nM | 262 nM | –
COc1ccc2c3c1O[C@H]1[C@@]4(OC)CC[C@@]5(C[C@@H]4COCc4cc6ccccc6o4)[C@@H](C2)[N+](C)(CC2CC2)CC[C@]315 (stereo partly specified) | 17.3 nM | – | –
COc1ccc2c3c1O[C@H]1[C@@]4(OC)CC[C@@]5(C[C@@H]4COCc4cc6c(cc4Cl)OCO6)[C@@H](C2)[N+](C)(CC2CC2)CC[C@]315 (stereo partly specified) | 66.7 nM | 163 nM | 18400 nM
COc1ccc(COC[C@H]2C[C@@]34CC[C@]2(OC)[C@@H]2Oc5c(OC)ccc6c5[C@@]23CC[N+](C)(CC2CC2)[C@@H]4C6)cc1 (stereo partly specified) | 57 nM | 544 nM | –
CO[C@]12CC[C@@]3(C[C@@H]1COCc1ccoc1)[C@H]1Cc4ccc(O)c5c4[C@@]3(CC[N+]1(C)CC1CC1)[C@H]2O5 (stereo partly specified) | – | 47.1 nM | 193 nM
COc1ccc2c3c1O[C@H]1[C@@]4(OC)CC[C@@]5(C[C@@H]4COCc4ccc(Cl)c(Cl)c4)[C@@H](C2)[N+](C)(CC2CC2)CC[C@]315 (stereo partly specified) | – | 67.2 nM | 4410 nM
COc1ccc2c3c1O[C@H]1[C@@]4(OC)CC[C@@]5(C[C@@H]4COCc4ccco4)[C@@H](C2)[N+](C)(CC2CC2)CC[C@]315 (stereo partly specified) | 10.6 nM | 571 nM | 4790 nM
